Experimental data reported in ChEMBL document CHEMBL5120858, “Structure-activity relationship and antitumor activity of 1,4-pyrazine-containing inhibitors of histone acetyltransferases P300/CBP” (Eur J Med Chem, 2022).

Amino acid sequences for entries named in this document (tags omitted).
UniProt Q09472, whole entry: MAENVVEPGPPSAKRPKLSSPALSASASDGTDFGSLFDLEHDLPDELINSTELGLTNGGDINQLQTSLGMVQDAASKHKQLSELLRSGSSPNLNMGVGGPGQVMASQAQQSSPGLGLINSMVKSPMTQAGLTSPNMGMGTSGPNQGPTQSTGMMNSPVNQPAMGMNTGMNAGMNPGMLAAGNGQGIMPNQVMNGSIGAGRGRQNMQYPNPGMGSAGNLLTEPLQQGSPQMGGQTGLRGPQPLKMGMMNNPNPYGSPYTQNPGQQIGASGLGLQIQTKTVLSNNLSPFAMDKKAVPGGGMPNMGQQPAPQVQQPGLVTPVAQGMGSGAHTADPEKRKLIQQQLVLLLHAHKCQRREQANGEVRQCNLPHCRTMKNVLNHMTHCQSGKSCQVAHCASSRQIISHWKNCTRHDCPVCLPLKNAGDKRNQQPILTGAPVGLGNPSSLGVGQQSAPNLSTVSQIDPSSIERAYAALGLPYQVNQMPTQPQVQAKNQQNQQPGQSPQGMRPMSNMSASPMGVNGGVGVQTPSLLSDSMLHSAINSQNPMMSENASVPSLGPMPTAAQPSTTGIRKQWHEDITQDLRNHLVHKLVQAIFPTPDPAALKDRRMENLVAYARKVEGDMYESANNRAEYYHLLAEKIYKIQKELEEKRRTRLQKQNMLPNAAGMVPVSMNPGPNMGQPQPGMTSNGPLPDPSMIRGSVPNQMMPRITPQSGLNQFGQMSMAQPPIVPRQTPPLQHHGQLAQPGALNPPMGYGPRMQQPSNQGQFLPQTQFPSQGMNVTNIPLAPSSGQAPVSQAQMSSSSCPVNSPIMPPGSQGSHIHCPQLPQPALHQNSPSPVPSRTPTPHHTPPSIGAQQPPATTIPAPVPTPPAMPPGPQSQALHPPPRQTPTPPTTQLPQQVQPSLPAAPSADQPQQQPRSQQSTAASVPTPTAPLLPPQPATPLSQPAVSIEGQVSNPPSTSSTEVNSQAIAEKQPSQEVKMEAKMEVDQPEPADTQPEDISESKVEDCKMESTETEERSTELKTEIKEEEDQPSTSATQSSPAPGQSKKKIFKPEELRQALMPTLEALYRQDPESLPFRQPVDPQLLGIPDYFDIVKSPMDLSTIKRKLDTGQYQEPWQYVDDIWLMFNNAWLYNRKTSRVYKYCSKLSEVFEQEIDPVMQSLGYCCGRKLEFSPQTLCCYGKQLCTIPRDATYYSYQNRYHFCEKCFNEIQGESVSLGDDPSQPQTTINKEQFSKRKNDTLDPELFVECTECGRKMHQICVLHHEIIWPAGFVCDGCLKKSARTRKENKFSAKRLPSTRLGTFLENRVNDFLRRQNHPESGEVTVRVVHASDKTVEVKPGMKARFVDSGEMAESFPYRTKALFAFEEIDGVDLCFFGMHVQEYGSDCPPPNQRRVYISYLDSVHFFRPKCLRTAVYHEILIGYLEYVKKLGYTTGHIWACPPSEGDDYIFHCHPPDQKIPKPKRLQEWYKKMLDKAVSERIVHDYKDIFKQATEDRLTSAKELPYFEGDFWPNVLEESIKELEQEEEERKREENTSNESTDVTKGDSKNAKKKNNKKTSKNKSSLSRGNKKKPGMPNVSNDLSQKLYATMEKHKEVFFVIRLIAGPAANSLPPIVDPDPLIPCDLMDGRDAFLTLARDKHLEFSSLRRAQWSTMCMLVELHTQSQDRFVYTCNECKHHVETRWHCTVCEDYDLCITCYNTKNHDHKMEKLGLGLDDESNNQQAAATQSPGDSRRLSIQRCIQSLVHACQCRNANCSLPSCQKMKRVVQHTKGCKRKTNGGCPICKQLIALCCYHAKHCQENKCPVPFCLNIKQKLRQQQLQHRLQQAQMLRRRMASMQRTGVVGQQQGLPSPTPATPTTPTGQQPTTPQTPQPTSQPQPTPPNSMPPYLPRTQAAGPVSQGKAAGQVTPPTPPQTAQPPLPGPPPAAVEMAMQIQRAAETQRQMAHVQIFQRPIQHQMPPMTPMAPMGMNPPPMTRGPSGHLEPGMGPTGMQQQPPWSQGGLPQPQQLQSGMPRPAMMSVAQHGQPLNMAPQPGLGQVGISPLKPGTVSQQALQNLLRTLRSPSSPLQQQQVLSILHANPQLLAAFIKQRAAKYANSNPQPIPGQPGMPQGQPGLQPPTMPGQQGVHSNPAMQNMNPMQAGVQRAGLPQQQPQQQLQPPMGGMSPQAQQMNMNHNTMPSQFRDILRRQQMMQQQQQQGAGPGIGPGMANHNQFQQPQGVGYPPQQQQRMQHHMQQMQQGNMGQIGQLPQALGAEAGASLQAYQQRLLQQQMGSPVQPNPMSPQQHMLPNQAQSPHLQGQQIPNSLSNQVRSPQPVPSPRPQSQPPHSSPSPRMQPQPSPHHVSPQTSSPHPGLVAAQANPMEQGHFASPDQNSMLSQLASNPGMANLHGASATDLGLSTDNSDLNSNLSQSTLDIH

target: Histone acetyltransferase p300 (Homo sapiens, UniProt Q09472); assay: Inhibition of human p300 HAT domain (1195 to 1673 residues) at 10 uM using histone H3 peptide and acetyl-coA as substrates preincubated for 10 mins followed by substrate addition and measured after 30 mins by beckman scintillation counting analysis relative to control; settings: time 40.0 min
Outline: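 Single-concentration screen at 10 μM in the radiometric p300 HAT domain assay: enzyme 10 nM, pH 7.0 phosphate/Brij-35, 10 min preincubation, then H3(1-21) peptide 20 μM plus ³H/unlabelled Ac-CoA (20 μM total), 30 min at 25 °C. Filter-bound ³H-acetylated peptide was counted, and the value is given as % inhibition.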

Row | Structure (SMILES) | inhibition [%]
1 | NC1CCC(COc2cnc(-c3ccc(Br)cc3)c(-c3ccc(Br)cc3)n2)CC1 (configuration not stated) | 59.1
2 | CN(C)Cc1ccc(-c2ncc(OCC3CCNCC3)nc2-c2ccc(CN(C)C)cc2)cc1 | 46.3
3 | NCCCOc1cnc(-c2ccc(Br)cc2)c(-c2ccc(Br)cc2)n1 | 35.4
4 | Brc1ccc(-c2ncc(OCC3CCNC3)nc2-c2ccc(Br)cc2)cc1 (configuration not stated) | 42.7
5 | CNCCCCOc1cnc(-c2ccc(Br)cc2)c(-c2ccc(Br)cc2)n1 | 19.1
6 | Clc1ccc(-c2ncc(OCC3CCNCC3)nc2-c2ccc(Cl)cc2)cc1 | 41
7 | NCCCCOc1cnc(-c2ccc(Br)cc2)c(-c2ccc(Br)cc2)n1 | 21.2
